Experimental data published in PubChem BioAssay AID743266 (National Center for Advancing Translational Sciences (NCATS), 2014).
Only a part is listed here, and it is no random draw. Activity calls are given as the source filed them. The call rests on the fitted dose curve; in most records, active means well fitted activation curve with a large enough effect; inconclusive means small, poorly fitted or top-dose-only effect, or another doubt; inactive means no such curve, though single readings can be large or run the other way.

Sequences of proteins named here, by UniProt entry; tags and fusion partners are left off. A change or cut given only in a name is not applied to a line headed by its entry.
UniProt Q03431: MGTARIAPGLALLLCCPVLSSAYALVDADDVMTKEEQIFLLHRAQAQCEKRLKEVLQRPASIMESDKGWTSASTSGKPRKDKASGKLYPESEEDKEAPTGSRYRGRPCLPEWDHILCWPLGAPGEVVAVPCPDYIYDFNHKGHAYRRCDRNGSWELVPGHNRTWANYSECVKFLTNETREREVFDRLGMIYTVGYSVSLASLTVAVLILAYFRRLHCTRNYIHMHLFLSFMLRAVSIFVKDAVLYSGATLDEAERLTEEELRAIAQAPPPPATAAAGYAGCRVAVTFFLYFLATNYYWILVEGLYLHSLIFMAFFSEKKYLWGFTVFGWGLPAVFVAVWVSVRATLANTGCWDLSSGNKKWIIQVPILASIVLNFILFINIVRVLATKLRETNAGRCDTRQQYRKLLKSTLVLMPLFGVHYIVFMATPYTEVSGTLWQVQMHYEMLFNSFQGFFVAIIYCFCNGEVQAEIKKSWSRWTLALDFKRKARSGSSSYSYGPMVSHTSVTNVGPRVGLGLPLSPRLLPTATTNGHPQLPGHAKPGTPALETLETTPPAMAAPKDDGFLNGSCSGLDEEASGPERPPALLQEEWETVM

Molecular target: Parathyroid hormone/parathyroid hormone-related peptide receptor (Homo sapiens) (UniProt Q03431)
Test: qHTS for PTHR1 Agonists: Primary Screen; further: nearly all actives have a fitted effect of over 55% in size
Conditions: HEK293 GP2 PTHR1 cells, GloSensor cAMP luminescence, 1 h; activation: at 115 µM (top of the series) unless noted

SMILES | activation | outcome
CN(C)C(=O)Oc1noc2ccccc12 | inactive | –
O=P1(Nc2nc3ccc(Cl)cc3s2)COc2ccccc2O1 (stereo not drawn) | inactive: -1.78% | –
CCOc1ccc(C2=NCC(CBr)S2)cc1 (stereo not drawn) | inactive: -0.817% | –
CCc1cc(O)c([N+](=O)[O-])c(C)c1[N+](=O)[O-] | inactive: -25% | –
CC(C)(C)C(=O)NC(Sc1ccccc1)C(Cl)(Cl)Cl (stereo not drawn) | inactive: -22.9% | –
CC(=O)c1ccc(N2CC2c2ccncc2)cc1 (stereo not drawn) | inactive | –
N#C/C(=C\c1ccc(N(CCBr)CCBr)cc1)C(N)=O | inactive: -14.7% | –
COC(=O)C1(C)COP(=O)(NCc2ccccc2)OC1 (stereo not drawn) | inactive: -0.276% | –
Cc1ccccc1CN(C)C(=O)COC(=O)C(O)(c1ccccc1)c1ccccc1 | inactive: -32.2% | –
C[C@H]1OP(=O)(Oc2ccccc2)C[C@@H]2O[C@@H]21 (stereo partly drawn) | inactive | –
C[C@@H]1C=CCP(=O)(Oc2ccccc2)O1 (stereo partly drawn) | inactive: -17.5% | –
CC(=O)Nc1ccc([As](=O)(O)O)c(O)c1 | inactive | –
CC(=O)Nc1ccc(Oc2c([N+](=O)[O-])cc([N+](=O)[O-])cc2[N+](=O)[O-])cc1 | inactive: -34% | –
NC(=O)c1cc([N+](=O)[O-])cc([N+](=O)[O-])c1N | inactive: -4.68% | –
CN(C(=O)Cc1ccc(Cl)c(Cl)c1)[C@H]1CCCC[C@H]1N1CCCC1 | inactive: -16.9% | –
COc1ccccc1OP(=O)(Nc1ccc(C)cn1)Oc1ccccc1OC | inactive: -24.9% | –
Cc1ccc(OP(=O)(Nc2nccs2)Oc2ccc(C)cc2)cc1 | inactive | –
CN1CCCC(OC(=O)C(c2ccccc2)c2ccccc2)C1 (stereo not drawn) | inactive | –
Clc1ccc(Cl)c(NC2=NCC(CBr)S2)c1 (stereo not drawn) | inactive: -16.5% | –
Nc1cc(N)c2nonc2c1[N+](=O)[O-] | inactive | –
CC(C)CC(=O)NC(Sc1ccc(Cl)cc1)C(Cl)(Cl)Cl (stereo not drawn) | – | inactive [at 57.5 µM]
Oc1ccccc1CNc1ccccn1 | inactive | –

SMILES | activation | outcome
O=C(NC(Sc1ccncn1)C(Cl)(Cl)Cl)c1ccccc1 (stereo not drawn) | inactive: -17.2% | –
O=[N+]([O-])C1C(O)C(O)C([N+](=O)[O-])C(O)C1O (stereo not drawn) | inactive: -23.2% | –
CC(=O)Nc1ccc([As](=O)(O)O)cc1 | inactive: -28.2% | –
O=C(O)c1ccccc1[As](=O)(O)O | inactive | –
CCCC1OP(N)(=O)OCC1CC (stereo not drawn) | inactive | –
O=P(Nc1nc2ccc(Cl)cc2s1)(c1ccccc1)c1ccccc1 | inactive: -23.6% | –
CN(C)P(=O)(N(C)C)n1c(Nc2ccccc2)nnc1-c1ccccc1 | inactive | –
Cc1cc(SC(NC(=O)c2ccc(F)cc2)C(Cl)(Cl)Cl)ncn1 (stereo not drawn) | inactive | –
CCOP(=O)(Nc1ccccc1)OCC | – | inactive [at 57.5 µM]
CN(C(=O)Cc1ccc(Cl)c(Cl)c1)[C@H]1CCCC[C@@H]1N1CCCC1 | inactive: -24.3% | –
Cc1ccc(NP(=O)(Oc2ccccc2F)Oc2ccccc2F)nc1 | inactive | –
CCN(N=Nc1nonc1N)c1nonc1N | inactive: -15.2% | –
Nc1cccc2ccc([As](=O)(O)O)cc12 | inactive: 8.63% | –
O=P1(N(CCCl)CCCl)OCCCS1 (stereo not drawn) | inactive | –
O=C(Nc1cc([As](=O)(O)O)ccc1O)c1ccccc1 | inactive | –
CC(C)(C)C(=O)NC(Sc1ccncn1)C(Cl)(Cl)Cl (stereo not drawn) | inactive | –
O=[N+]([O-])c1ncn(CCn2ncnc2[N+](=O)[O-])n1 | inactive: -22.6% | –
COC(=O)C1(C)COP(=O)(Nc2ccccc2)OC1 (stereo not drawn) | inactive | –
O=[N+]([O-])c1cccc(NC2=NCC(CBr)S2)c1 (stereo not drawn) | inactive | –
O=C(O)CNc1ccc([As](=O)(O)O)cc1 | inactive: -2.69% | –
COc1ccc(C2=NCC(CBr)S2)cc1 (stereo not drawn) | inactive | –
CC(=O)N1C2C3N(C(C)=O)C1C1N(C(C)=O)C(C(N1C(C)=O)N3C(C)=O)N2C(C)=O | – | inactive [at 57.5 µM]

SMILES | activation | outcome
O=[N+]([O-])c1cccc2n[nH]nc12 | – | inactive [at 57.5 µM]
Cc1ccc(NP(=O)(Oc2ccccc2)Oc2ccccc2)nc1 | inactive: -16.1% | –
O=[N+]([O-])c1cc([N+](=O)[O-])c(CCNc2ccccc2)c([N+](=O)[O-])c1 | inactive | –
CCc1nc2c(n1)c1c(non1O)c1c2no[n+]1[O-] | inactive: -25.9% | –
Nc1ccc([As](=O)(O)c2ccc(N)cc2)cc1 | inactive | –
CCN(/C(=N/P(=O)(N1CCOCC1)N1CCOCC1)N1CCOCC1)c1ccc(OC)cc1 | inactive | –
CC(C)c1nc(Nc2ccccc2)n(P(=O)(N(C)C)N(C)C)n1 | inactive | –
CC(C)=N/N=C(\N)N[N+](=O)[O-] | inactive | –
CN(C)C(=O)OCCc1n(C)cc[n+]1C | inactive | –
CC1CCN(C(=O)Oc2c(Cl)cc(Cl)c3cccnc23)CC1 | inactive: -10.2% [at 57.5 µM] | –
c1cc(-c2nn[nH]n2)ccc1-c1nn[nH]n1 | inactive: -18.6% | –
COP1(=S)c2c(C)nn(CCC#N)c2N=C(c2ccc(F)cc2)N1C (stereo not drawn) | inactive: -10.8% [at 57.5 µM] | –
COC(=O)C1(C)COP(=O)(N2CCCC2)OC1 (stereo not drawn) | inactive: -23.4% | –
O=C(COc1ccccc1)OC1CN2CCC1CC2 (stereo not drawn) | – | inactive [at 57.5 µM]
O=C(Nc1ccncc1[N+](=O)[O-])c1ccc([N+](=O)[O-])cc1[N+](=O)[O-] | inactive: -26.3% | –
O=C(O)C(=O)c1ccc(N(CCCl)CCCl)cc1 | inactive | –
CCOC(=O)c1ccc(NC(=O)C(C)(CCl)SC)cc1 (stereo not drawn) | inactive | –
O=C(OC1CN2CCC1CC2)c1cccc([N+](=O)[O-])c1 (stereo not drawn) | inactive: -8.4% | –
CSc1ccc(Nc2c([N+](=O)[O-])cc([N+](=O)[O-])cc2[N+](=O)[O-])cc1 | inactive | –
CCC(C)N(CC(C)C)C(=S)SC(NC(C)=O)C(Cl)(Cl)Cl (stereo not drawn) | inactive: -8.15% [at 57.5 µM] | –
CC1CCNP(=O)(N(CCCl)CCCl)O1 (stereo not drawn) | inactive: -22% | –
O=C(O)C(O)c1ccc(N(CCCl)CCCl)cc1 (stereo not drawn) | inactive: -8.39% | –

SMILES | activation | outcome
CCCCOc1ccc(C(=O)NCC2(N3CCCCC3)CCCCC2)cc1OC | inactive: -5.99% | –
Cc1cc(SC(NC(=O)c2ccccc2)C(Cl)(Cl)Cl)nc(C(C)C)n1 (stereo not drawn) | inactive: -10.2% | –
COP(=O)(OC)N1CC1c1ccccc1 (stereo not drawn) | inactive | –
CCOC(=O)Nc1cccc([As](=O)(O)O)c1 | inactive | –
O=[N+]([O-])c1ccc(Nc2ccc(Oc3ccc([N+](=O)[O-])cc3[N+](=O)[O-])cc2)c([N+](=O)[O-])c1 | inactive: -46.9% | –
Cc1cc(SC(NC=O)C(Cl)(Cl)Cl)ncn1 (stereo not drawn) | inactive: -1.8% | –
O=P(Nc1ccccn1)(c1cccc2ccccc12)c1cccc2ccccc12 | inactive: -3.29% | –
O=[As](O)(c1ccc(O)cc1)c1ccccc1O | inactive: -26.8% | –
C[As](=O)(O)c1cccc(C(=O)O)c1 | inactive | –
O=[N+]([O-])c1ccc(-c2cc([N+](=O)[O-])c(O)c([N+](=O)[O-])c2)cc1 | inactive: -10.8% | –
COc1cc(C(=O)NCC2(N3CCOCC3)CCCCC2)ccc1OCC(C)C | inactive: 9% | –
Cc1ccc2nc3c(c(C)c2c1)CC(C(Cl)Cl)S3 (stereo not drawn) | inactive | –
Cc1ccc(OP(=O)(Nc2ccc([N+](=O)[O-])cn2)Oc2ccc(C)cc2)cc1 | inactive: -2.03% | –
[N-]=[N+]=NC1CCCCC1NC(=O)c1cc([N+](=O)[O-])cc([N+](=O)[O-])c1 (stereo not drawn) | inactive | –
COC(=O)C1(C)COP(=O)(N2CCCCCC2)OC1 (stereo not drawn) | inactive | –
CC(C)c1ccc(OP(=O)(Nc2ccccn2)Oc2ccccc2F)cc1 (stereo not drawn) | inactive: -45.7% | –
ClCCSc1nnc(-c2cccnc2)o1 | inactive | –
CC(C)NC(=O)NP(=O)(Oc1ccccc1)Oc1ccccc1 | inactive: -51.6% | –
CCN(CC)C(=S)SC(NC=O)C(Cl)(Cl)Cl (stereo not drawn) | – | inactive [at 57.5 µM]
O=C(OC1CN2CCC1CC2)c1cccc2[nH]cnc12 (stereo not drawn) | inactive | –
O=[N+]([O-])c1cc([N+](=O)[O-])c(-c2ccn[nH]2)s1 | inactive | –
Cc1cc(=O)[nH]c(N[N+](=O)[O-])n1 | inactive: -19.3% | –

SMILES | activation | outcome
Cc1c2c(nc3ccccc13)SC(C(Cl)Cl)C2 (stereo not drawn) | inactive | –
COc1ccc2nc(NP(=O)(c3ccccc3)c3ccccc3)sc2c1 | inactive: -0.732% | –
COc1cc(I)ccc1[As](=O)(O)O | inactive: -5.82% | –
O=P1(N(CCCl)CCCl)Nc2ccccc2N1 | inactive: -31% | –
O=P1(N(CCCl)CCCl)OCCCN1CCCl (stereo not drawn) | inactive: 9.02% | –
COc1ccc(N/C(=N/P(=O)(N2CCOCC2)N2CCOCC2)N2CCOCC2)cc1 | inactive: 20.1% | –
O=[N+]([O-])c1cc(Oc2ccc([N+](=O)[O-])cc2C(F)(F)F)cc([N+](=O)[O-])c1 | inactive: -12.6% | –
O=[As](O)(O)c1cccnc1 | inactive | –
COc1cc(C(=O)NCC2(N3CCOCC3)CCCCC2)cc(Cl)c1OC(C)C | inactive | –
CS(=O)(=O)c1ccc(Cl)c(NC(=O)COC(=O)C(O)(c2ccccc2)c2ccccc2)c1 | inactive: -13.6% | –
O=C(OC1CN2CCC1CC2)c1ccc(Cl)cc1 (stereo not drawn) | inactive | –
Cc1cccc(OCC(=O)OC2CN3CCC2CC3)c1 (stereo not drawn) | inactive: -24.3% | –
O=[As](O)(c1cccc(O)c1)c1cccc(O)c1 | inactive | –
CCCOP(=S)(Nc1nc(N)cc(=O)[nH]1)OCCC | inactive | –
Cc1ccc(NCCc2c([N+](=O)[O-])cc([N+](=O)[O-])cc2[N+](=O)[O-])cc1 | inactive: -0.424% | –
Nc1cccc2c([As](=O)(O)O)cccc12 | inactive | –
COc1cc(C2NCCC3(OCCO3)C2(C)C)cc(OC)c1OC (stereo not drawn) | inactive | –
CCOP(=O)(Nc1cccc2ccccc12)OCC | inactive | –
CS(=O)(=O)c1cc([N+](=O)[O-])c2no[n+]([O-])c2c1 | inactive | –
CCOP1(=S)c2c(C)nn(CCC#N)c2N=C(c2ccccc2F)N1C (stereo not drawn) | inactive: 20.6% [at 57.5 µM] | –
